From US20020152479A1, “Car modulators: screening and treatment of hypercholesterolemia” (priority 2000, published 2002) come the findings set out here.

The chains behind the UniProt entries cited, without tags or fusion partners. Residues count along the entry.
UniProt Q14994, 1-348 isoform 2: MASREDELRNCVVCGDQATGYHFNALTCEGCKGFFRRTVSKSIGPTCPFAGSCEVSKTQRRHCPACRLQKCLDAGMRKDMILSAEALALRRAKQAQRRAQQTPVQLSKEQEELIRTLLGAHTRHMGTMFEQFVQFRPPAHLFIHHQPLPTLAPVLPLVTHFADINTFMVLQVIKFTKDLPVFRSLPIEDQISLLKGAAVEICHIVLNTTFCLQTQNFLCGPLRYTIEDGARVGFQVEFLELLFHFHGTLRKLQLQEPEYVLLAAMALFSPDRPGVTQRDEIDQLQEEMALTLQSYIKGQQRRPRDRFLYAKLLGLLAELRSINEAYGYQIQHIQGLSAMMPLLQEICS
UniProt Q14994, 76-348 isoform 2 limits assumed: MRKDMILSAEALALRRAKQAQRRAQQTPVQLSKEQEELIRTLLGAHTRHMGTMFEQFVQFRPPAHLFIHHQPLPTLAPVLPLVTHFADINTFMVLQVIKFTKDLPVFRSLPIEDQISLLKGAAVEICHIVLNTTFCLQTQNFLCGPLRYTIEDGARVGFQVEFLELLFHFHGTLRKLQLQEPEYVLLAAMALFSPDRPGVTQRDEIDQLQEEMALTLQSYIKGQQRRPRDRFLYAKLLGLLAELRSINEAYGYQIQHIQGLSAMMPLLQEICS
UniProt O35627, whole entry: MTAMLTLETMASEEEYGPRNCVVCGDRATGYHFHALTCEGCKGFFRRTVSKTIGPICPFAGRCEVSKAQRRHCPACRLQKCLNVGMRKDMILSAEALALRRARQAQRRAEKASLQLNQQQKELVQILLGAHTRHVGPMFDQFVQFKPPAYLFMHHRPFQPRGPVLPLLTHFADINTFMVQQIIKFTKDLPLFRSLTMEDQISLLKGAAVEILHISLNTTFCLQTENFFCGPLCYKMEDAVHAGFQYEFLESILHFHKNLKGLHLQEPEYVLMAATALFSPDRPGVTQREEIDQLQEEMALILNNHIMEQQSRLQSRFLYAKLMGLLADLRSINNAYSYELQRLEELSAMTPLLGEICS
UniProt O35627, 86-358 limits assumed: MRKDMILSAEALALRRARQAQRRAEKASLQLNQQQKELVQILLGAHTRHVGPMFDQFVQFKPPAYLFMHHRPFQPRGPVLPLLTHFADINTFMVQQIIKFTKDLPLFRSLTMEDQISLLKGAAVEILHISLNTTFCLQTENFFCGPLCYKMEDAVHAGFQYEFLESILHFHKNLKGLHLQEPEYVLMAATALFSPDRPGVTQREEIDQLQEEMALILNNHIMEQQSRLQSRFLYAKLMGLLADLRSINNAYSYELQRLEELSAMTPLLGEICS

The target of test [1] is GST-CARα ligand binding domain fusion protein (Homo sapiens, UniProt Q14994). Briefly: Peptide sensor fluorescence polarization assay, GST-CARα ligand binding domain with rhodamine-[…] (SRC-1 peptide). As to conditions: read-out: GST-CARα EC50; half-maximal concentration of stimulation of peptide sensor assay signal.
Test [2] has as its target GST-CARβ ligand binding domain fusion protein (Mus musculus, UniProt O35627). Put plainly: Peptide sensor fluorescence polarization assay, GST-CARβ ligand binding domain. As to conditions: read-out: GST-CARβ EC50; half-maximal concentration of stimulation of peptide sensor assay signal. Background: In fluorescence polarisation assays a small probe gives low polarisation when free and higher when bound to something large.

Test [3] deals with CARα (Homo sapiens, UniProt Q14994). Briefly: RARE-luciferase reporter gene assay in CV-1 cells with pCMV-CARα. The class given is cell-based. The note with it: 10 μM compound, 50 ng pCMV-CARα. (A reporter such as luciferase makes a cellular process visible.)
In test [4] the target is CARβ (Mus musculus, UniProt O35627). Put plainly: RARE-luciferase reporter gene assay in CV-1 cells with pCMV-CARβ. The class given is cell-based. The note with it: 10 μM compound, 50 ng pCMV-CARβ.

By EC50 is commonly meant the concentration giving half of the maximal effect. For the compound `CCOC(=O)N1C2CCC1CC(OC(=O)C(O)(c1ccccc1)c1ccccc1)C2` (stereo not shown), the EC50 worked out at 257 nM in test [1] and 15.5 nM in test [2]. The “CMV-CARα, fold increase in normalized luciferase activity over DMSO control” value in test [3] is recorded as 1.07. Moreover, the “CMV-CARβ, fold increase in normalized luciferase activity over DMSO control” value in test [4] was 1.94.
